According to US10190170B2, “Maker for diagnosing HER2 inhibitor resistant cancer, diagnostic kit comprising same, and method for diagnosing HER2 inhibitor resistant cancer” (NATIONAL CANCER CENTER, priority 2014, dated 2019):

Key:
Type in all cases: cell-based, human
[1] = test system: JIMT-1 cells (HER2 inhibitor-resistant cell line); assay: Expression of HER2 inhibitor resistance-associated genes after herceptin treatment (real-time RT-PCR)
[2] = test system: SKBR3 cells (HER2 inhibitor-sensitive cell line); assay: as above
[3] = test system: HER2 protein in SKBR3 cells; assay: HER2 protein expression upon herceptin treatment (western blot); settings: SKBR3, 10 μg/ml herceptin, 4 days, FIG. 13
Procedure: Specifically, the used human SKBR3 and JIMT-1 cells were provided from a public institution, American Type Culture Collection (ATCC). The SKBR3 and JIMT-1 human breast cancer cell lines were used within 6 months after resuscitation. SKBR3 cells were cultured in McCoy's 5A medium (Sigma-aldrich, USA), and JIMT-1 cells were cultured in DMEM medium (Hyclone, Thermo Fisher, USA) under the culture condition of 37° C., 5% carbon dioxide, and 10% of introduced FBS (Hyclone). Then, 2.5×10^5 number of cells were seeded and cultured under 70-80% of normoxic atmosphere. Thereafter, each of two cell line was respectively cultured under 10 μg/ml herceptin-treated and herceptin-untreated states for 4 days.
Also, during the culturing process, an amount of HER2 expression was evaluated at each day. […] An expression degree was measured by using imaging experiment software, Image Lab software (Bio-Rad Co.), and the result was shown in FIG. 13 below. β-actin was used to check whether the procedure and analysis were appropriately performed by the specific method as in the prior art document [Antitumor agent PX-12 et al., (2011) Cancer Chemother Pharmacol, 68:405-413] by using 2(-delta-delta C(T)) method as in the prior art document [Analyzing real-time PCR data et al., (2008) Nature Protocols, 3:1101-1108].

[4] = test system: JIMT-1 cells with knocked-down HER2 inhibitor resistance-associated gene; assay: Cell viability after siRNA knock-down of a resistance-associated gene and herceptin treatment; settings: JIMT-1, siRNA 50 nM 48 hours, then 10 μg/ml herceptin 48 hours, FIG. 6
Procedure: Firstly, 4,000 number of SKBR3 cells and 2,000 number of JIMT-1 cells were plated on a 384-well plate (Greiner Co., Germany). Then, cells were plated triplicate, and 6 images were taken for each well. siRNA for knock-down of a gene associated with HER2 inhibitor resistance was purchased from Thermo Scientific, Co., and prepared such that final concentration became 50 nM. 0.5 μl of DharmaFECT1 was used for each well. […] A nucleus was stained with Draq5 (Cell Signaling Technology Co.) to count surviving cells. Opera high content screening system, (OPERA, PerkinElmer Co.) was used for the imaging and cell counting. In addition, for siRNA data analysis, PRISM (version 5) software was used.

[5] = JIMT-1, 10 μg/ml herceptin, 24 hours, FIG. 4
[6] = JIMT-1, 10 μg/ml herceptin, 48 hours, FIG. 5
[7] = SKBR3, 10 μg/ml herceptin, 24 hours, FIG. 4

## trastuzumab [herceptin]
[1]; [5]
  amount of expression of gene ARHGEF12 increased: about 65%
  amount of expression of gene EGF increased: about 37%
  expression amounts of 25 genes associated with herceptin resistance: increased amounts of expression of most genes
[1]; [6]
  amount of expression of gene ENAH increased: about 51%
  expression amount of gene TJP2 increased: about 35%
  expression amounts of 25 genes associated with herceptin resistance: remarkably increased amounts of expression of almost genes
[1]; JIMT-1, herceptin treatment, 48 hours versus 24 hours
  expression amount of TJP2 gene at 48 hours increased with respect to expression amount after 24 hours: about 86%
[1]; JIMT-1, herceptin, 24 hours, FIG. 4
  regulation of TJP2 gene expression: downregulated
[1]; JIMT-1, herceptin, 48 hours, FIG. 5
  expression amount of gene ICOSLG increased: about 194%
[2]; [7]
  amount of expression of gene ATF4 reduced: about 33%
  amount of expression of gene CHEK2 reduced: about 32%
  expression amounts of 25 genes associated with herceptin resistance: reduced amounts of expression of most genes
[2]; SKBR3, 10 μg/ml herceptin, 48 hours, FIG. 5
  expression amounts of 25 genes associated with herceptin resistance: remarkably reduced amounts of expression of almost genes
[2]; SKBR3, herceptin treatment, 48 hours versus 24 hours
  expression amount of ICOSLG gene at 48 hours reduced with respect to expression amount at 24 hours: about 64%
[2]; SKBR3, herceptin, 24 hours, FIG. 4
  regulation of ICOSLG gene expression: upregulated
[3]
  change in HER2 expression: almost no change
[4]
  cell viability after gene knock-down and herceptin treatment: reduced
